The text below walks through data of patent publication US20040241243A1, “Angiogenesis promotion by prostaglandin compositions and methods” (NexMed (Holdings) Inc., priority 2003, published 2004).

The chains behind the UniProt entries cited, without tags or fusion partners. Where a name states a change or a piece, a line headed by the entry shows the natural chain unless it says otherwise.
UniProt Q62053: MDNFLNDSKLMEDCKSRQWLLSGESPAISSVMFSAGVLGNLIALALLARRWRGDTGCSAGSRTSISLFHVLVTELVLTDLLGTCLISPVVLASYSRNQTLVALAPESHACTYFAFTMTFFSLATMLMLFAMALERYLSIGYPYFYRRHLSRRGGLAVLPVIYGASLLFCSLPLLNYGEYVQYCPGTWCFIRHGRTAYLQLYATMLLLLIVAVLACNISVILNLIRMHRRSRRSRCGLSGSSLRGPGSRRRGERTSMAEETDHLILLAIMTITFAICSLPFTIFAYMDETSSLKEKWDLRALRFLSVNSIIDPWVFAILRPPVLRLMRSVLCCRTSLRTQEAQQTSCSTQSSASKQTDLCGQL
UniProt P32240: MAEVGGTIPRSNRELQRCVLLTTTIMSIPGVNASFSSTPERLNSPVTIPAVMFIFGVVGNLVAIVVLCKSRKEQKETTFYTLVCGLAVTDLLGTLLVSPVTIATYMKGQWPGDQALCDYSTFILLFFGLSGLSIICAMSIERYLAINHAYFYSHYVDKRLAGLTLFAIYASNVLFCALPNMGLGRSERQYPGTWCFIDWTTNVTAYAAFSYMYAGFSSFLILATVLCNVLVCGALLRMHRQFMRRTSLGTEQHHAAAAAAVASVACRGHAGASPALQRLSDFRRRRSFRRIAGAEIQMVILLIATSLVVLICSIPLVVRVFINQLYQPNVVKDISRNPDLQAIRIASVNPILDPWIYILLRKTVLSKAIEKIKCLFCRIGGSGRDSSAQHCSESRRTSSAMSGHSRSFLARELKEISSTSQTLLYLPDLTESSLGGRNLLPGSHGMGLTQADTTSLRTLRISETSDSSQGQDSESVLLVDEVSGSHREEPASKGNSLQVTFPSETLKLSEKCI

The test system of experiment [1] is segments of rat iliac arteries. In words: microvascular outgrowth from rat iliac artery ringlets cultured in Matrigel. The format is cell-based, Sprague-Dawley rats. The method, then:
Each sample was placed on a reduced-growth factor Matrigel coated coverglass slide in a culture dish filled with serum-free medium. PGE1 (Sigma) was added to the medium at a final concentration of 1, 10, 20, 30, 60, or 100 micromoles (μM). The cultures were incubated at 37° C. in a humidified atmosphere with 5% CO2. Digital photographs were taken of growth after 96 hours. The control group (6 samples) was incubated in Matrigel in serum free medium without PGE1.
Growth Factor Reduced Matrigel (Passaniti, A., et al., Lab. Invest. 1992 67:518-528) was purchased from Becton Dickinson (Mountain View, Calif.). Cell culture grade PGE1 was purchased from Sigma Chemical. (St. Louis, Mo.). RPIM-1640 and other cell culture reagents were purchased from GIBCO Invitrogen Corp. (Grand Island, N.Y.).
Male Sprague-Dawley rats, two-months old, were used in this study. […]
After 96 hours of incubation, the iliac artery ringlet cultures were examined. […] The digital images were analyzed using ChemiImager 4000 software (Alpha Innotech Corporation, San Leandro, Calif.) to determine the maximum length of the microvascular growths.
Statistical analysis was performed using computer software from Primer of Biostatistics, 3rd ed. […] The data involving different time points were first analyzed by one-way analysis of variance (ANOVA). […]

A further experiment deals with EP2 receptor (Mus musculus, UniProt Q62053). The following applies: read-out: affinity for the EP2 receptor; cited from earlier work.
In a further experiment the target is EP4 receptor (Mus musculus, UniProt P32240). The following applies: read-out: affinity for the EP4 receptor; cited from earlier work.

As for Prostaglandin E1 [PGE1], in experiment [1] (higher doses 10, 20, 30 and 60 μM), the “maximum microvascular growth relative to peak at 1 μM” value is “smaller maximum microvascular growth”. Moreover, in experiment [1] (highest doses 20, 30 and 60 μM), the “maximum microvascular growth relative to absence of PGE1” value is “apparently reduced the maximum microvascular growth”. For the same substance, the Kd was approximately 10 nM on EP2 receptor and approximately 2 nM at EP4 receptor.
